For assay [1], the species on record is Homo sapiens. Description: Selectivity index, ratio of IC50 for inhibition of PRMT1 (unknown origin) to IC50 for Inhibition of recombinant human N-terminal FLAG-tagged PRMT5 (2 to end residues) /human N-terminal His-tagged MEP50 (2 to end residues) expressed in HEK293F cells. The format is cell-based.
The species named for assay [2] is Homo sapiens. Description: Selectivity index, ratio of IC50 for inhibition of PRMT4 (unknown origin) to IC50 for Inhibition of recombinant human N-terminal FLAG-tagged PRMT5 (2 to end residues) /human N-terminal His-tagged MEP50 (2 to end residues) expressed in HEK293F cells. The format is cell-based.

SMILES strings stand for the structures.

`N#Cc1c(Br)cccc1NC(=O)CCN1CCc2ccccc2C1`: the Ratio IC50 in the assay filed under Homo sapiens [1] and in the assay listed under Homo sapiens [2] was more than 70 in each case.

The record behind these values is ChEMBL document CHEMBL4325864, “Discovery of new potent protein arginine methyltransferase 5 (PRMT5) inhibitors by assembly of key pharmacophores from known inhibitors” (Bioorg Med Chem Lett, 2018).
